Laboratory results taken from patent publication US20080131534A1, “USE OF A PLANT EXTRACT OR PLANT JUICE” (Melbrosin International Produktions- und Vertriebs GesmbH & …, priority 2006, published 2008).

Chains of the proteins cited; added tags and fusions are not shown. Residues count along the entry.
UniProt P37231, 238-503 limits assumed: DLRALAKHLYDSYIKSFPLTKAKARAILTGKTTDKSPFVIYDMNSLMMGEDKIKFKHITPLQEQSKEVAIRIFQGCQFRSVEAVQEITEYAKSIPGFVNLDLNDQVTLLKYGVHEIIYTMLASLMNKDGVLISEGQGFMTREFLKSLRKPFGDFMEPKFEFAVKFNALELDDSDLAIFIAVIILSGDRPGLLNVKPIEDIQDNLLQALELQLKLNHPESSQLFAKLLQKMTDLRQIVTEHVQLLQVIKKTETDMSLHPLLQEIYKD

Target: T1, PPAR-gamma (Homo sapiens, UniProt P37231)
T1 construct: purchased Invitrogen
Experiment: Polar Screen PPAR Competitive Assay (fluorescence polarization ligand binding)
Conditions: Table 3, active substances in Oregano

EC50: > 500 µM
Structure (SMILES): COc1cc(-c2[o+]c3cc(O)cc(O)c3cc2O)ccc1O [PeonidinCl]
